According to US20080188508A1, “Methods and Therapies for Potentiating a Therapeutic Action of an Opioid Receptor Agonist and Inhibiting and/or Reversing Tolerance to Opioid Receptor Agonists” (priority 2007, published 2008):

How the values were obtained:
Sprague Dawley rats [1] = conditions: for morphine antinociception restored, % of the original analgesic response: opioid tolerant animals
Sprague Dawley rats [2] = conditions: for morphine antinociception restored, % of the original analgesic response: opioid tolerant animals; remark: listed apart in the source
Sprague Dawley rats [3] = tested on: Sprague Dawley rats
[4] = tested on: CGRP-immunoreactivity in the spinal dorsal horn; conditions: for reduction of mean optical density of CGRP compared to the 10 day morphine-only treated group: morphine with AM-251 3.2 μg on days 6-10
[5] = tested on: CGRP-immunoreactive neurons in adult rat dorsal root ganglion cultures
[6] = Acute Tolerance: three i.t. injections over 4 h of Mor 15 μg, AM-251 3.2 μg or both, morphine ED50 from cumulative dose-response the following day
[7] = Chronic Tolerance: daily i.t. days 1-5 of Mor 15 μg, AM-251 3.2 μg or both, morphine ED50 on day 6
[8] = Maintenance of Chronic Tolerance: Mor 15 μg days 1-5, then days 6-10 the labelled treatment (Mor 15 μg, Mor + AM-251 3.2 μg, or AM-251 3.2 μg), morphine ED50 on day 11
[9] = AM-251 1.6 μg co-administered on days 6-10
[10] = AM-251 3.2 μg co-administered on days 6-10
[11] = Acute Tolerance, morphine 15 μg, AM-251 3.2 μg i.t.
[12] = Acute Tolerance, morphine 15 μg, AM-251 3.2 μg i.t., relative to saline
[13] = Chronic Tolerance, days 1-5, morphine 15 μg, AM-251 3.2 μg i.t.
[14] = Chronic Tolerance, days 1-5, morphine 15 μg, AM-251 3.2 μg i.t., relative to saline
[15] = Maintenance of Chronic Tolerance: Mor 15 μg D1-5, then D6-10 the labelled treatment (Mor, Mor + AM-251 3.2 μg, or AM-251 3.2 μg)
[16] = Maintenance of Chronic Tolerance: Mor 15 μg D1-5, then D6-10 the labelled treatment, relative to saline/saline

In the case of `Cc1c(C(=O)NN2CCCCC2)nn(-c2ccc(Cl)cc2Cl)c1-c1ccc(I)cc1` [AM-251, 1-(2,4-dichlorophenyl)-5-(4-iodophenyl)-4-methyl-N-1-piperidinyl-1H-pyrazole-3-carboxamide], the “effect on decline in morphine antinociception (chronic tolerance)” value (Sprague Dawley rats [1]; AM-251 1.6 μg i.t. with morphine, day 4 and day 5) is reported as “attenuated the decline in morphine antinociception”, the “Tail-flick ED50 (μg) (mean ± s.e.mean)” value (Sprague Dawley rats [1]; [6]) is reported as 5.6 ± 0.1 µg and the “Tail-flick ED50 (μg) (mean ± s.e.mean)” value (Sprague Dawley rats [1]; [7]) is reported as 6.8 ± 0.7 µg. For the same compound, the “Tail-flick ED50 (μg) (mean ± s.e.mean)” value (Sprague Dawley rats [1]; [8]) was 6.0 ± 0.2 µg, the “morphine antinociception restored, % of the original analgesic response” value (from here on “morphine antinociception restored, %”) (Sprague Dawley rats [1]; [9]) was “approximately 51%” and the “morphine antinociception restored, %” value (Sprague Dawley rats [1]; [10]) was “approximately 73%”. The “effect on decline in morphine antinociception (chronic tolerance)” value (Sprague Dawley rats [2]; AM-251 1.6 μg i.t. with morphine) was “failed to have a significant effect”, the “Paw-Pressure ED50 (μg) (mean ± s.e.mean)” value (Sprague Dawley rats [2]; [6]) was 4.6 ± 0.6 µg and the “Paw-Pressure ED50 (μg) (mean ± s.e.mean)” value (Sprague Dawley rats [2]; [7]) was 13.7 ± 0.8 µg. For the same compound, the “Paw-Pressure ED50 (μg) (mean ± s.e.mean)” value (Sprague Dawley rats [2]; [8]) was 6.2 ± 0.3 µg, the “morphine antinociception restored, %” value (Sprague Dawley rats [2]; [9]) was roughly 38% and the “morphine antinociception restored, %” value (Sprague Dawley rats [2]; [10]) was roughly 50%. For the same compound, the “effect on acute morphine tolerance (loss in morphine antinociception)” value (Sprague Dawley rats [3]; AM-251 1.6 μg co-administered with i.t. morphine 15 μg at 0, 90 and 180 minutes) was “attenuated the loss in morphine antinociception”, the “effect on acute morphine tolerance (loss in morphine antinociception)” value (Sprague Dawley rats [3]; AM-251 3.2 μg co-administered with i.t. morphine 15 μg at 0, 90 and 180 minutes) was “pronounced inhibition of acute morphine tolerance” and the “effect on development of chronic morphine tolerance” value (Sprague Dawley rats [3]; AM-251 3.2 μg i.t. co-administered with morphine 15 μg for 5 days, tail-flick and paw-pressure tests) was “attenuated the development of tolerance”. For the same compound, the “effect on the increase in morphine ED50 value in opioid tolerant animals” value (Sprague Dawley rats [3]; co-administration of morphine and AM-251 (1.6 or 3.2 μg) on days 6-10) was “reversed the increase in morphine ED50 value”, the “effect on basal CGRP-immunoreactivity compared to saline treated control” value ([4]; AM-251 3.2 μg alone, maintenance paradigm) was “no effect” and the “effect on CGRP-immunoreactivity” value ([4]; AM-251 3.2 μg in the absence of morphine for 5-days) was “no noticeable effect”. For the same compound, the “effect on basal CGRP expression” value ([4]; AM-251 (1.6 or 3.2 μg) in the absence of morphine) was “no effect”, the “Deeper Laminae (mean ± s.e.mean), mean optical density of CGRP-immunoreactivity” value (shortened to “Deeper Laminae (mean ± s.e.mean)”) [4, 11] was 67.2 ± 4.1 and the “Superficial Laminae (mean ± s.e.mean), mean optical density of CGRP-immunoreactivity” value (“Superficial Laminae (mean ± s.e.mean)” below) [4, 11] was 142.4 ± 4.2. For the same compound, the “Relative OD, Deeper Laminae” value [4, 12] was 0.91, the “Relative OD, Superficial Laminae” value [4, 12] was 1.04 and the “Deeper Laminae (mean ± s.e.mean)” value [4, 13] was 60.4 ± 8.0. For the same compound, the “Superficial Laminae (mean ± s.e.mean)” value [4, 13] was 139.9 ± 3.6, the “Relative OD, Deeper Laminae” value [4, 14] was 0.95 and the “Relative OD, Superficial Laminae” value [4, 14] was 1.04. The “Deeper Laminae (mean ± s.e.mean)” value [4, 15] was 77.1 ± 2.3, the “Superficial Laminae (mean ± s.e.mean)” value [4, 15] was 131.9 ± 7.6 and the “Relative OD, Deeper Laminae” value [4, 16] was 1.09. For the same compound, the “Relative OD, Superficial Laminae” value [4, 16] was 1.03, the “effect on the increase in CGRP-immunoreactivity in morphine tolerant animals” value ([4]; co-administration of morphine with AM-251 3.2 μg on days 6-10) was “partially reversed” and the “effect on the morphine-induced increase in CGRP-immunoreactivity” value ([4]; co-treatment of morphine with AM-251 3.2 μg, 5 days) was “suppressed”. The “reduction of mean optical density of CGRP compared to the 10 day morphine-only treated group” value ([4]; deeper laminae) was 9%, the “reduction of mean optical density of CGRP compared to the 10 day morphine-only treated group” value ([4]; superficial laminae) was 12% and the “effect on the morphine-induced increase in CGRP-immunoreactivity” value ([5]; AM-251 1 μM co-treatment with morphine) was “No effect”. For the same compound, the “decrease in number of CGRP-immunoreactive neurons compared to morphine-only treated group” value ([5]; AM-251 5 μM with morphine for 5 days, did not achieve statistical significance) was 20%, the “suppression of the morphine-induced increase in CGRP-immunoreactivity” value ([5]; AM-251 10 μM co-treatment with morphine for 5 days) was 25% and the “effect on basal CGRP expression in DRG neurons” value ([5]; AM-251 10 μM in the absence of morphine) was “no effect”.

Where two headings read alike, the source gives them in different places.
